Patent US10647679B2, “N-methyl-D-aspartate receptor (NMDAR) potentiators, pharmaceutical compositions, and uses related thereto” (Emory University, priority 2015, dated 2020)

Amino acid sequences for entries named in this document (tags omitted). Residues count along the entry.
UniProt Q00961, 20-1237 limits assumed: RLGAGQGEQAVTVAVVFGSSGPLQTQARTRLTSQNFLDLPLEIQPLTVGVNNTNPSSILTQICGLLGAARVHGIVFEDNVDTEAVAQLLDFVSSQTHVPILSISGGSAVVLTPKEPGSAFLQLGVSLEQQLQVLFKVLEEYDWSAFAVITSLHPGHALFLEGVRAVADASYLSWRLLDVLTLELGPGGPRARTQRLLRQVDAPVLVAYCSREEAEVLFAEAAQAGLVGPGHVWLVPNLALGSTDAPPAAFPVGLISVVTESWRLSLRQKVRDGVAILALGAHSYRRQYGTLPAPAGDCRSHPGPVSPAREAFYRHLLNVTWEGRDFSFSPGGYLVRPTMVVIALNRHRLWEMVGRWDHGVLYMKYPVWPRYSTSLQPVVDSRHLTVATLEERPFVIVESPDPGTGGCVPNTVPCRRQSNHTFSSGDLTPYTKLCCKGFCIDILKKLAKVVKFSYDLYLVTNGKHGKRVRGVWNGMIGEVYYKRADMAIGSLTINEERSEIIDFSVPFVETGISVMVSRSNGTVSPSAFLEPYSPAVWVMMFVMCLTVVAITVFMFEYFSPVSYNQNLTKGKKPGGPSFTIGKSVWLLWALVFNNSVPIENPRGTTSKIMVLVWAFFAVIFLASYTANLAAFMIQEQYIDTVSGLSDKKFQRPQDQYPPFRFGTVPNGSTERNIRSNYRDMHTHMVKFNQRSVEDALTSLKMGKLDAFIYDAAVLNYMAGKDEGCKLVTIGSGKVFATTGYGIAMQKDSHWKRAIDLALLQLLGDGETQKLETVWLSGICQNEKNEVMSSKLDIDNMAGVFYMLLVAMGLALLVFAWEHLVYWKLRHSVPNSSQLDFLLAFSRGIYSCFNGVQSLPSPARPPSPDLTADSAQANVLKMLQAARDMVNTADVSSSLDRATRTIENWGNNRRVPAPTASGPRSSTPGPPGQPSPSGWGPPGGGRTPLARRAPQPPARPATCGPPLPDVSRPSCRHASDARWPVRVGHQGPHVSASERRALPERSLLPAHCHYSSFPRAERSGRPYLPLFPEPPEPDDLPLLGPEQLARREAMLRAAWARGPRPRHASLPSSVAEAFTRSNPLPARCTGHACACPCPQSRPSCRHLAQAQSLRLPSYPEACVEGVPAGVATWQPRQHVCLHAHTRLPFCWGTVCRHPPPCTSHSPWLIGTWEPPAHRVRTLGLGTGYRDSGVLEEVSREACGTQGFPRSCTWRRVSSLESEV
UniProt Q62645, 28-1323 limits assumed: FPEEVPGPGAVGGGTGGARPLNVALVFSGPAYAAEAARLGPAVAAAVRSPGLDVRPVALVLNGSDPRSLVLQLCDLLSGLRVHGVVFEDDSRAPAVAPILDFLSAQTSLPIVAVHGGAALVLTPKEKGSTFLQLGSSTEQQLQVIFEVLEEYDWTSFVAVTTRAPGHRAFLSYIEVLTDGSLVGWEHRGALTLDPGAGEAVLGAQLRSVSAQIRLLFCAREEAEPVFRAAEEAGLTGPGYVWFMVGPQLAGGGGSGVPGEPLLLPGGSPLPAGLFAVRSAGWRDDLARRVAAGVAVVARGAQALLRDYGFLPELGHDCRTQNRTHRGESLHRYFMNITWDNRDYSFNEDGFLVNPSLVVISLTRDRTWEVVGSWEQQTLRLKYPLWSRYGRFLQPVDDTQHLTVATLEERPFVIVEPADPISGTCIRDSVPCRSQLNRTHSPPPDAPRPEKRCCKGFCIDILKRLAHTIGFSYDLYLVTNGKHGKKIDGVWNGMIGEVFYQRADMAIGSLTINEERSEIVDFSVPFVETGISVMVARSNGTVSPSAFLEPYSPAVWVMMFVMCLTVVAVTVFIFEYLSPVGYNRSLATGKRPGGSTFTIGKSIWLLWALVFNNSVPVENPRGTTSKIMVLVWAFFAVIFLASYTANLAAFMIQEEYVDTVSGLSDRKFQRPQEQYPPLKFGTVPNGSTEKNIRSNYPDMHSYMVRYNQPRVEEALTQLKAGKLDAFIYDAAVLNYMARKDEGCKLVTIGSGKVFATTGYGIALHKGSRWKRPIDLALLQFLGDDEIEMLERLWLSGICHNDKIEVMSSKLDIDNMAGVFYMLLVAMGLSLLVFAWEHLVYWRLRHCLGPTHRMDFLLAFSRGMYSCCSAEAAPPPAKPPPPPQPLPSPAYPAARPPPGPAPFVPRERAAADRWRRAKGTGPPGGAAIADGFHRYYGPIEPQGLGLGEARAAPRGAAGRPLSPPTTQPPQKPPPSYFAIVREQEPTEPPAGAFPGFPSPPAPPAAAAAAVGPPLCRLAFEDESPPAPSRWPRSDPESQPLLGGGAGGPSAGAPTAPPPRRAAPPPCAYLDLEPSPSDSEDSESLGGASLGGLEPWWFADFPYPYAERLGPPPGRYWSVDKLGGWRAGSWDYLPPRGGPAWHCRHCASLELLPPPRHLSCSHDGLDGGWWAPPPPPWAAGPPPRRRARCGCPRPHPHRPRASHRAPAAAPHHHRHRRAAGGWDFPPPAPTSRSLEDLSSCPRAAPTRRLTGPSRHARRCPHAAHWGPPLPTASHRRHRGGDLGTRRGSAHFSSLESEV

Legend:
[1] = molecular target: recombinant rat GluN1/GluN2C (Rattus norvegicus, UniProt Q00961); test: Two-electrode voltage-clamp (TEVC) recordings in Xenopus laevis oocytes, GluN1/GluN2C; assay type: cell-based
[2] = molecular target: recombinant rat GluN1/GluN2D (Rattus norvegicus, UniProt Q62645); test: Two-electrode voltage-clamp (TEVC) recordings in Xenopus laevis oocytes, GluN1/GluN2D; assay type: cell-based

With `COc1ccc(OCC2c3ccc(OCCc4ccccc4)cc3CCN2C(=O)c2cccc(Cl)c2)cc1` (stereo not shown) the “EC50 & Max Effect: 2C Max (%)” value [1] was 250%, the EC50 ([1]; read-out: EC50 & Max Effect: 2C) was 220 nM and the “EC50 & Max Effect: 2D Max (%)” value [2] was 216%. It also gave an EC50 ([2]; read-out: EC50 & Max Effect: 2D) of 160 nM.
